The numbers were not newly measured in US20210244743A1 (priority 2020, published 2021), which cites them from elsewhere.

The IC50 is the concentration that gives 50% inhibition.

For the data set, the system named is basal and insulin-activated 2-deoxyglucose uptake in adipocytes. The settings on record: read-out: IC50, inhibition of basal and insulin-activated 2-deoxyglucose uptake; cited from earlier work.

`Nc1ccc(C(=O)Nc2cccc(-c3nc(N4CCOCC4)c4oc5ncccc5c4n3)c2)cn1` [YM-201636, 6-amino-N-(3-(4-morpholinopyrido[3′,2′:4,5]furo[3,2-d]pyrimidin-2-yl)phenyl)nicotinamide]: the IC50 is 54 nM.
